Test results published in PubChem BioAssay AID2797 (The Scripps Research Institute Molecular Screening Center, 2010).
Only a part is listed here, and it is no random draw. The source made the active and inactive calls.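 Rule for the calls: active = activation above the mean activation of all tested compounds plus 3 SD, per screening run (cut at about 20% in these data); inactive = the rest.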

Sequences of proteins named here, by UniProt entry; tags and fusion partners are left off.
UniProt P37288, whole entry: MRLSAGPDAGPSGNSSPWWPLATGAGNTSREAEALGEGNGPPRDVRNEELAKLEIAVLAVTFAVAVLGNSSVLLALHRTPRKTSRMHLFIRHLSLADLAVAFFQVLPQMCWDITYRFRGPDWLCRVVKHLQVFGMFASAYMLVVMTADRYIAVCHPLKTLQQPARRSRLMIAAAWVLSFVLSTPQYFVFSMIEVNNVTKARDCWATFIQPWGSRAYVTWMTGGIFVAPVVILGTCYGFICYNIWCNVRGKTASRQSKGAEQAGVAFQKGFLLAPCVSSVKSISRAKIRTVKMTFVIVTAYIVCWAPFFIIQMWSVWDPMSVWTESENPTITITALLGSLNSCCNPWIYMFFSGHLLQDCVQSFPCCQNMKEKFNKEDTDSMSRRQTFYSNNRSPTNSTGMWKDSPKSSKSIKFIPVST

Target: Vasopressin V1a receptor (Homo sapiens) (UniProt P37288)
Experiment: V1R activation via calcium rise – fluorescence, CHO-V1R cells, counter-screen for OXTR agonist project, primary screen (AID 2797);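 note: signal is peak over basal fluorescence ratio across a 100 second FLIPR read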
Settings: Fluo-8 calcium fluorescence, agonist mode, at 3 µM, hits give high values, 0% DMSO, 100% 3 nM vasopressin

SMILES	activation
CCc1ccc(OP(C)(=O)O)cc1	inactive: 0.34%
COc1ccccc1OP(C)(=O)Nc1ccc(C)cc1C (configuration not stated)	inactive: 0%
CP(=O)(Nc1ccccn1)Oc1ccccc1 (configuration not stated)	inactive: -0.17%
Cc1c(NP(C)(=O)Oc2ccc(C(C)C)cc2)c(=O)n(-c2ccccc2)n1C (configuration not stated)	inactive: -0.1%
O=[N+]([O-])c1cc([N+](=O)[O-])c(Nc2ccccn2)c([N+](=O)[O-])c1	inactive: 3.06%
CN(C)CCOC(=O)C(O)(c1ccccc1)C1CCCC1 (configuration not stated)	inactive: -0.43%
COc1ccc(OP(C)(=O)Nc2ccccn2)cc1 (configuration not stated)	inactive: 0.7%
COc1ccccc1OP(C)(=O)Nc1ccc(Br)cc1 (configuration not stated)	inactive: -1.17%
CP(=O)(Nc1ccc(Cl)cc1Cl)Oc1ccccc1 (configuration not stated)	inactive: -1.15%
CP(=O)(OCCOc1ccccc1)OCCOc1ccccc1	inactive: -0.81%
Cc1nc2ccc3ccccc3c2o1.O=[N+]([O-])c1cc([N+](=O)[O-])c(O)c([N+](=O)[O-])c1	inactive: 1.96%
COc1ccc(OP(C)(=O)Nc2ccccc2Br)cc1 (configuration not stated)	inactive: 0.42%
COc1ccccc1OP(C)(=O)Nc1ccc(C)c(C)c1 (configuration not stated)	inactive: -0.91%
Cc1cc(C)cc(OP(C)(=O)Nc2cccc(C(F)(F)F)c2)c1 (configuration not stated)	inactive: -1.59%
CP(=O)(OC12CC3CC(CC(C3)C1)C2)OC12CC3CC(CC(C3)C1)C2	inactive: -1.43%
CCOC(=O)c1ccc(NP(C)(=O)Oc2ccc(Cl)cc2)cc1 (configuration not stated)	inactive: 1.97%
Nc1ccc2c(ccc3cccnc32)n1.O=[N+]([O-])c1cc([N+](=O)[O-])c(O)c([N+](=O)[O-])c1	inactive: -0.35%
CN(C)C(=O)c1c([N+](=O)[O-])cc([N+](=O)[O-])cc1[N+](=O)[O-]	inactive: -0.06%
CP(=O)(Nc1ccc(Cl)cc1)Oc1ccc(F)cc1 (configuration not stated)	inactive: 0.38%
COc1ccccc1OP(C)(=O)Nc1ccccc1Br (configuration not stated)	inactive: 0.06%
CC(C)(C)c1ccc(OP(C)(=O)O)cc1	inactive: 0.42%
CCc1ccc(OP(C)(=O)Nc2cccnc2)cc1 (configuration not stated)	inactive: -0.55%
CP(=O)(Oc1ccccc1)N1CCOC1=O (configuration not stated)	inactive: 1.26%
O=C(OCCCN1CCCC1)C(O)(c1ccccc1)C1CCCCC1 (configuration not stated)	inactive: -0.15%
COc1ccccc1OP(C)(=O)Nc1c(C)n(C)n(-c2ccccc2)c1=O (configuration not stated)	inactive: 4.11%
COc1ccc(OP(C)(=O)Nc2ccc(Br)cc2)cc1 (configuration not stated)	inactive: 1.89%
CCN(CC)CC(O)COC(=O)C(O)(c1ccccc1)C1CCCCC1 (configuration not stated)	inactive: 0.4%
